According to PubChem BioAssay AID1645859 (Buhrlage Lab, Dana-Farber Cancer Institute and Novartis …, 2021):
This is a selection; strong and weak results do not stand in their true shares. Some tests of the compounds listed are not included; inactive here does not mean inactive elsewhere. The source made the active and inactive calls. No stated cut-off is given here; in the data, active means inhibition above about 30%; inactive means the rest.

The chains behind the UniProt entries cited, without tags or fusion partners.
UniProt P09936, whole entry: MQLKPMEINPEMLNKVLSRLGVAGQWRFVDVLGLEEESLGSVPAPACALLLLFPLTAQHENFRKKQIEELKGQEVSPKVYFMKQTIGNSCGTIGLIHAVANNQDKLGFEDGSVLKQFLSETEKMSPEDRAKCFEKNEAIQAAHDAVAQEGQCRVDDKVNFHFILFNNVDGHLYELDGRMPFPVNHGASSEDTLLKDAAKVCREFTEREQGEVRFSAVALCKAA

Target: Ubiquitin carboxyl-terminal hydrolase isozyme L1 (Homo sapiens) (UniProt P09936)
Assay: blocks human UCHL1 ubiquitin-rhodamine cleavage (AID 1645859)
Conditions: purified UCHL1, Ub-rhodamine cleavage fluorescence; at 20 µM; hits give high values

SMILES	inhibition
COc1ccc(C(=O)NCC2(N3CCOCC3)CCCCC2)cc1	inactive: 0.598%
O=C(NCC1(N2CCCCC2)CCCCC1)c1ccc2c(c1)OCCO2	inactive: 1.57%
Cc1c(C(=O)NCC2(N(C)C)CCCCC2)oc2ccc(F)cc12	inactive: 0.115%
COc1cccc(C(=O)NCC2(N3CCCCC3)CCCCC2)c1	inactive: -7.13%
Cc1c(C(=O)NCC2(N(C)C)CCCCC2)oc2ccccc12	inactive: -0.0635%
O=C(NCC1(N2CCCCC2)CCCCC1)c1ccc2ccccc2c1	inactive: -3.69%
O=C(NCC1(N2CCOCC2)CCCCC1)c1ccccc1F	inactive: -0.201%
